Values of other authors in the PKSmart pharmacokinetics tables (Seal et al. 2025).

Assay: Lombardo, Berellini, Obach 2018, Drug Metab Dispos 46:1466, doi 10.1124/dmd.118.082966
Settings: human; for MRT / Vd / clearance / half-life: in vivo, iv

## O=[N+]([O-])OC[C@H](O)CO
  MRT: 4.12 h
  Vd: 0.76 L/kg
  clearance: 3.63 mL/min/kg
  half-life: 2.5 h

## N#CC(CCN1CCC(C(N)=O)(N2CCCCC2)CC1)(c1ccccc1)c1ccccc1
  MRT: 10 h
  Vd: 4.7 L/kg
  clearance: 7.8 mL/min/kg
  half-life: 8 h
plasma
  fraction unbound: 0.061

## CN(C(=O)Cc1cccc2sccc12)[C@@H]1CCCC[C@H]1N1CCCC1
  MRT: 5.9 h
  Vd: 1.1 L/kg
  clearance: 3 mL/min/kg
  half-life: 5.5 h
